The text below walks through data of PubChem BioAssay AID2797 (The Scripps Research Institute Molecular Screening Center, 2010).

Chains of the proteins cited; added tags and fusions are not shown.
UniProt P37288, whole entry: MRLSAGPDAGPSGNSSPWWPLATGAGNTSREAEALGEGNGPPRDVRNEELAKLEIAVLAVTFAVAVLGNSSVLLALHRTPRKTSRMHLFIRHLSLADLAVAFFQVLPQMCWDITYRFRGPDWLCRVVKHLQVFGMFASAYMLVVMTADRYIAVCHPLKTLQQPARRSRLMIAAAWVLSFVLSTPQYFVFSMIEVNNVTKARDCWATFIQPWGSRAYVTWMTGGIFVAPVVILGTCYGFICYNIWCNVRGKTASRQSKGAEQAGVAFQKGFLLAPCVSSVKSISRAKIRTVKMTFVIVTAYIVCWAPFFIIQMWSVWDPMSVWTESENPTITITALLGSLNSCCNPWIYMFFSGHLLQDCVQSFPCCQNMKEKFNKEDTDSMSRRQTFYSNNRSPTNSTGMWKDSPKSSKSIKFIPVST

This is a selection; strong and weak results do not stand in their true shares. Some results for these compounds are left out of this collection, so the calls shown say nothing about other tests. Active and inactive are the calls of the source.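 The calls were made as follows: active = activation above the mean activation of all tested compounds plus 3 SD, per screening run (cut at about 20% in these data); inactive = the rest.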

This assay has as its target Vasopressin V1a receptor (Homo sapiens) (UniProt P37288). Description: V1R activation via calcium rise – fluorescence, CHO-V1R cells, counter-screen for OXTR agonist project, primary screen (AID 2797).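 Also: signal is peak over basal fluorescence ratio across a 100 second FLIPR read.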 The settings on record: Fluo-8 calcium fluorescence, agonist mode, at 3 µM, active compounds read high, 0% DMSO, 100% 3 nM vasopressin. In general terms: A counterscreen serves to expose hits that act by an unwanted route or on another target.
On to `COc1ccc(Br)c(C(=O)NCC2(N3CCCCC3)CCCCC2)c1`, for which the activation is inactive: -0.54%.

As for `CC(C)Oc1ccc(C(=O)NCC2(N(C)C)CCCCC2)cc1`, the activation was inactive: 1.68%.

Consider `CN(C)c1cccc(C(=O)NCC2(N(C)C)CCCCC2)c1`, for which the activation is inactive: -0.99%.

Regarding `O=C(OC1CN2CCC1CC2)C(CO)(c1ccccc1)c1ccccc1` (centres undefined), the activation is inactive: 0.96%.

On to `COc1cccc(C(=O)NCC2(N3CCCCC3)CCCCC2)c1`, for which the activation is inactive: 0.89%.

Consider `COc1ccc(Cl)cc1C(=O)NCC1(N(C)C)CCCCC1`, for which the activation is inactive: -0.27%.

On to `O=C(NCC1(N2CCCCC2)CCCCC1)c1cccc(Cl)c1`, for which the activation is inactive: 0.98%.

Take `CN(C)C1(CNC(=O)c2ccc(Br)cc2)CCCCC1`: the activation is inactive: -0.57%.

Take `COc1cc(C(=O)NCC2(N(C)C)CCCCC2)c([N+](=O)[O-])cc1OC`: the activation was inactive: 0.57%.

For the compound `C=CCN1CCN(CCOC(=O)C(O)(c2ccccc2)c2ccccc2)CC1`, the activation was inactive: -0.17%.

As for `O=C(NCC1(N2CCCCC2)CCCCC1)c1cc(F)c(F)cc1Cl`, the activation was inactive: 0.35%.

For `COc1ccc(C(=O)NCC2(N(C)C)CCCCC2)cc1`, the activation is inactive: 2.04%.

For the compound `CCN1CCCC(OC(=O)C2(O)c3ccccc3C=Cc3ccccc32)C1` (centres undefined), the activation is inactive: 0.84%.

`Cc1cc(C(=O)NCC2(N3CCCCC3)CCCCC2)ccc1[N+](=O)[O-]`: the activation was inactive: -0.54%.

Consider `O=C(NCC1(N2CCCCC2)CCCCC1)c1cccc(Br)c1`, for which the activation is inactive: 0.88%.

Consider `Cc1ccccc1C(=O)NCC1(N2CCCCC2)CCCCC1`, for which the activation is inactive: -0.17%.

With `CN(C)c1ccc(C(=O)NCC2(N(C)C)CCCCC2)cc1`, the activation was inactive: 0.32%.

`CN(C)C1CCCC1OC(=O)C(O)(c1ccccc1)c1ccccc1` (centres undefined): the activation is inactive: 1.45%.

Consider `CCN(CC)CC(C)C(C)OC(=O)C(O)(c1ccccc1)c1ccccc1` (centres undefined), for which the activation is inactive: 1.05%.

With `COc1cc(SC)ccc1C(=O)NCC1(N(C)C)CCCCC1`, the activation was inactive: 0.39%.

For `CC(C)N1C(=O)CC2(CCN(CCOC(=O)C(O)(c3ccccc3)c3ccccc3)CC2)C1=O`, the activation is inactive: 0.8%.

With `Cc1ccc(C(=O)NCC2(N3CCCCC3)CCCCC2)cc1`, the activation was inactive: 0.8%.

Consider `O=C(NCC1(N2CCCCC2)CCCCC1)c1cc([N+](=O)[O-])ccc1Cl`, for which the activation is inactive: -1.12%.

For `CN1[C@@H]2CC[C@H]1CC(OC(=O)C(O)(c1ccccc1)c1ccccc1)C2` (some centres undefined), the activation is inactive: 0.63%.
